The target in this experiment is T1, caspase-3 (Homo sapiens, UniProt P42574).
T1 sequence (P42574 29-175 limits assumed): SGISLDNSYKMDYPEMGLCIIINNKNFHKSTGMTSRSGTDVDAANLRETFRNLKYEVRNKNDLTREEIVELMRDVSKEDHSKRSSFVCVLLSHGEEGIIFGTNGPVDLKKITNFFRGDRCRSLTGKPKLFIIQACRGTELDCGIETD
T1 sequence (P42574 176-277 limits assumed): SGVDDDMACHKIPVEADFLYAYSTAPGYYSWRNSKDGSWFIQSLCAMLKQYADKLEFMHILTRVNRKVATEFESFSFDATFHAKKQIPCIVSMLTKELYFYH
Nature of the experiment: caspase-3 cleavage of PPC tested by HPLC. It is filed as biochemical. Conditions: PPC + caspase-3 + inhibitor.

From patent publication US8133482B2, “Activatable photodynamic therapy agents” (The Trustees of the University of Pennsylvania, priority 2003, dated 2012) come the findings set out here.

For Ac-DEVD-CHO, the “block of caspase-3 cleavage of PPC by inhibitor” value was “completely blocked the enzyme activity”.
